The values that follow are results of earlier work, collected in publication PMC10082586 (Cancer chemotherapy and pharmacology, 2022).

The conditions of this series: humans, cited from earlier work.

`C[C@@H]1COCCN1c1cc(-c2ccnn2C)c2ccnc(-c3ccn[nH]3)c2n1` [BAY-1895344]: the Clinical adverse events entry is “severe adverse events, specifically neutropenia and thrombocytopenia”. For the same molecule, under “5 to 80 mg administered twice daily”, the “Clinical dose proportionality of exposure” value is “dose proportional exposure and no evidence of saturable absorption”.
